Laboratory results: patent publication EP4810518A2, “ANTIBODY THAT BINDS ERBB-2 AND ERBB-3” (Merus B.V., priority 2017, dated 2018)
Several values for one entry are separate records, joined by “and”; a condition that tells them apart may be missing. Equal values may be shown once.

Test system: intracranial ST1360B PDX tumors
Settings: individual mouse, scale 0-4 (0 no, 4 massive brain edema)

For T-DM1, the “Brain edema score day 3” value (day 3 post initiation of therapy) was 1 and 2, the “Brain edema score day 7” value (day 7 post initiation of therapy) was 2 (2×) and 1 (3×) and the “Brain edema score day 10” value (day 10 post initiation of therapy) was 3 (2×) and 2 and 1. For the same substance, the “Brain edema score day 14” value (day 14 post initiation of therapy) was 2 (3×) and 3 (2×), the “Brain edema score day 21” value (day 21 post initiation of therapy) was 2 and the “Brain edema score day 28” value (day 28 post initiation of therapy) was 3. For the same substance, the “Brain edema final score” value (last MR scan of each mouse) was 3 (4×) and 2.
